Data from patent US20190352602A1, “Methods and Compositions for Producing Germ Cells from Bone Marrow Derived Germline Stem Cells” (The General Hospital Corporation, priority 2004, published 2019).

Test system: oocyte-containing follicles in ovaries
Experiment: Bone marrow transplantation (BMT) in adult wild-type female mice sterilized by cyclophosphamide and busulphan; ovarian follicle analysis

cyclophosphamide and busulphan
mice completely lacking immature oocytes (60 days after busulfan and cyclophosphamide on day 42 postpartum, without subsequent BMT, n=5): 4 of the 5 | immature oocytes or follicles detected in the ovaries (two months after 120 mg kg^-1 cyclophosphamide and 12 mg kg^-1 busulphan alone, no BMT): very few, if any, immature oocytes or follicles were detected
